# PubChem BioAssay AID1920062 (Sanford-Burnham Center for Chemical Genomics, 2024)
# Chains of the proteins cited; added tags and fusions are not shown.
# UniProt P20594, whole entry: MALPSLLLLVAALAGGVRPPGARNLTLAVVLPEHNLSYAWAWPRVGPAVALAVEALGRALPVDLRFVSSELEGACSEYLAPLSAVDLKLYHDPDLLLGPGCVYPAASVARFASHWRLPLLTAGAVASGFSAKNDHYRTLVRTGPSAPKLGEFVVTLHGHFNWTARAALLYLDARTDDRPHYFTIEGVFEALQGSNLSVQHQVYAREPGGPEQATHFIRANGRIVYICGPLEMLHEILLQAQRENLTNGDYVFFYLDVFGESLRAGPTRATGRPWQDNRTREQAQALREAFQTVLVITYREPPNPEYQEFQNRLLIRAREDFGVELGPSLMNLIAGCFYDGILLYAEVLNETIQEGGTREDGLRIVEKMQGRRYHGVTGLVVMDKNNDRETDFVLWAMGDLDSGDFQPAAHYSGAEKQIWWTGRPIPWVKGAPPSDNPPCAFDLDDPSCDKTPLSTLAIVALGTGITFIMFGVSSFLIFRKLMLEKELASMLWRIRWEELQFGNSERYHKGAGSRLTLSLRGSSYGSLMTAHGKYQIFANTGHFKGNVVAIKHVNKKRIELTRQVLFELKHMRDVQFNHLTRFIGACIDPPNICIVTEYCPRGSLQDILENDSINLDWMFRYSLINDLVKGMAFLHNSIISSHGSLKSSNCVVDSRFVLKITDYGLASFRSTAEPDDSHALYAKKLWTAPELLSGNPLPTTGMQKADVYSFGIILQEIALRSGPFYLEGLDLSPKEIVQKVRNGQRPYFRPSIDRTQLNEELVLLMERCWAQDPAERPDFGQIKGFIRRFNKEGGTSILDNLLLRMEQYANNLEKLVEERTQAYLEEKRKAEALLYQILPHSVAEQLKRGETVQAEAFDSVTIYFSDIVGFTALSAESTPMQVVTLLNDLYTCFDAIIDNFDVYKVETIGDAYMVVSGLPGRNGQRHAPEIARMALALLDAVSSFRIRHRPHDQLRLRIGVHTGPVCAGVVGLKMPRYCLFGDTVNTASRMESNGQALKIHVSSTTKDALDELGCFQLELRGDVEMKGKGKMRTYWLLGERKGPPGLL
# The list shows a part of the results, in another mix than the full data. The source made the active and inactive calls.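 The calls were made as follows: active = activation at 10 µM reaching about 35% in either raw or pattern-adjusted values (limit read from the data); inactive = the rest.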
# Target: Atrial natriuretic peptide receptor 2 (Homo sapiens) (UniProt P20594)
# Test: GC-B stimulated cGMP production enhancers – HEK293 GC-B cells, cGMP TR-FRET, EC30 CNP, primary screen (AID 1920062)
# Conditions: at 10 µM, active compounds read high, 0% at EC30 CNP, 100% saturating CNP
row,SMILES,activation
1,Cc1cccc(NC2(C#N)CCN(Cc3ccccc3)CC2)c1,inactive: 0.95%
2,CSc1ccccc1C(=O)NCC1(N2CCCCC2)CCCCC1,inactive: 3.94%
3,CCCCn1nnnc1C(c1cccs1)N1CCC(n2c(=O)[nH]c3ccccc32)CC1 (stereo not given),inactive: 2.75%
4,CCCCn1nnnc1C(CC)N1CCC(n2c(=O)[nH]c3ccccc32)CC1 (stereo not given),inactive: 4.01%
5,O=C(NCC1(N2CCCCC2)CCCCC1)c1cccs1,inactive: 0.61%
6,O=C(NCC1(N2CCCCC2)CCCCC1)c1ccc(=O)[nH]c1,inactive: 5.8%
7,CCC(c1nnnn1C1CCCC1)N1CCC(n2c(=O)[nH]c3ccccc32)CC1 (stereo not given),inactive: -8.72%
8,COc1ccc(C(=O)NCC2(N3CCCCC3)CCCCC2)c(OC)c1OC,inactive: 3.18%
9,CC(C)(C)OC(=O)N1CCC(N(C(=O)c2ccccc2)c2ccc(F)cc2)CC1,inactive: 0.65%
10,COc1ccc(C(=O)NCC2(N3CCCCC3)CCCCC2)cc1,inactive: 4.08%
11,CCCCn1nnnc1C(c1ccc(OC)cc1)N1CCC(n2c(=O)[nH]c3ccccc32)CC1 (stereo not given),inactive: -11.9%
12,CCOC(=O)N1CCC(Nc2ccc(OC)cc2)CC1,inactive: -0.98%
13,COc1ccc(Cl)cc1C(=O)NCC1(N2CCOCC2)CCCCC1,inactive: 3.48%
14,O=C(OC1CN2CCC1CC2)C1c2ccccc2Oc2ccccc21 (stereo not given),inactive: -10.7%
15,O=c1[nH]c2ccccc2n1C1CCN(C(c2cc3ccccc3o2)c2nnnn2C2CCCCC2)CC1 (stereo not given),inactive: 4.45%
16,O=C(NCC1(N2CCCCC2)CCCCC1)c1ccc(Cl)s1,inactive: 2.98%
17,N#CC1(Nc2ccccc2)CCN(Cc2ccccc2)CC1,inactive: 4.86%
18,O=C(NCC1(N2CCOCC2)CCCCC1)c1cc2ccccc2o1,inactive: -1.41%
19,Cc1cc(C)cc(N(C(=O)c2ccccc2)C2CCN(C(=O)OC(C)(C)C)CC2)c1,inactive: 1.76%
20,O=c1[nH]c2ccccc2n1C1CCN(C(c2ccccc2OC(F)(F)F)c2nnnn2C2CCCCC2)CC1 (stereo not given),inactive: 2.67%
21,O=C(NCC1(N2CCCCC2)CCCCC1)c1ccc(Cl)nc1,inactive: 9.66%
22,COc1ccc(NC2CCN(CCc3ccccc3)CC2)c(OC)c1,inactive: -1.19%

row,SMILES,activation
1,CCOC(=O)N1CCC(Nc2ccc(F)cc2)CC1,inactive: -1.97%
2,O=C(NCC1(N2CCCCC2)CCCCC1)c1ccc(F)cc1,inactive: -2.45%
3,CCCCn1nnnc1C(c1cc2ccccc2o1)N1CCC(n2c(=O)[nH]c3ccccc32)CC1 (stereo not given),inactive: 4.42%
4,O=P1(N(CCCl)CCCl)SCCCS1,inactive: 2.73%
5,CCCCOc1ccc(C(=O)NCC2(N3CCOCC3)CCCCC2)cc1,inactive: -5.82%
6,CCOc1ccc(C)cc1CN(CCCl)CCCl,inactive: -1.72%
7,O=C1CCN(Cc2ccccc2)CC1,inactive: 4.8%
8,CC(C)(C)n1nnnc1C(c1ccccc1)N1CCC(n2c(=O)[nH]c3ccccc32)CC1 (stereo not given),inactive: -0.37%
9,O=c1[nH]c2ccccc2n1C1CCN(C(c2cccc3ccccc23)c2nnnn2C2CCCC2)CC1 (stereo not given),inactive: -2.8%
10,COc1cc(C(=O)NCC2(N(C)C)CCCCC2)ccc1OC(F)F,inactive: 2.71%
11,CCOC(=O)N1CCC(Nc2cccc(C)c2)CC1,inactive: -1.18%
12,O=c1[nH]c2ccccc2n1C1CCN(C(c2ccccc2)c2nnnn2C2CCCCC2)CC1 (stereo not given),inactive: 0.83%
13,O=C(NCC1(N2CCCCC2)CCCCC1)c1cccc([N+](=O)[O-])c1,inactive: -3.25%
14,CSc1ccc(C(=O)NCC2(N3CCOCC3)CCCCC2)cc1,inactive: 2.44%
15,N#CC1(Nc2ccccc2)CCN(CCc2ccccc2)CC1,inactive: 2.4%
16,O=c1[nH]c2ccccc2n1C1CCN(C(c2ccccc2OC(F)(F)F)c2nnnn2C2CCCC2)CC1 (stereo not given),inactive: -1.13%
17,CCN1CCC(Nc2ccc(Cl)cc2)CC1,inactive: -5.76%
18,O=C(NCC1(N2CCCCC2)CCCCC1)c1ccc(OC(F)F)cc1,inactive: 4.47%
19,CC(C)(C)n1nnnc1C(c1ccccc1OC(F)(F)F)N1CCC(n2c(=O)[nH]c3ccccc32)CC1 (stereo not given),inactive: 2.61%
20,CCCCn1nnnc1C(c1cccc2ccccc12)N1CCC(n2c(=O)[nH]c3ccccc32)CC1 (stereo not given),inactive: -10.8%
21,CN1CCN(CCOC(=O)C(O)(c2ccccc2)c2ccccc2)CC1,inactive: 2.22%
22,COc1ccc(NC2CCN(C(=O)OC(C)(C)C)CC2)cc1,inactive: -7.56%

row,SMILES,activation
1,CC(C)c1ccc(C(=O)NCC2(N3CCOCC3)CCCCC2)cc1,inactive: 6.96%
2,COc1cc(C(=O)NCC2(N3CCCCC3)CCCCC2)ccc1OC(F)F,inactive: 2.42%
3,O=C(NCC1(N2CCOCC2)CCCCC1)c1cc(=O)[nH]c2ccccc12,inactive: -0.58%
4,O=C(NCC1(N2CCCCC2)CCCCC1)c1cccc(C(F)(F)F)c1,inactive: 3.01%
5,CCCCn1nnnc1C(c1ccnc2ccccc12)N1CCC(n2c(=O)[nH]c3ccccc32)CC1 (stereo not given),inactive: 0.25%
6,CCC(c1nnnn1C(C)(C)C)N1CCC(n2c(=O)[nH]c3ccccc32)CC1 (stereo not given),inactive: -3.09%
7,O=C(NCC1(N2CCOCC2)CCCCC1)c1cc(F)c(F)cc1Cl,inactive: -8.94%
8,COc1cc(OC)c(C(=O)NCC2(N(C)C)CCCCC2)cc1OC,inactive: 9.36%
9,CN(C)c1cccc(C(=O)NCC2(N3CCCCC3)CCCCC2)c1,inactive: 2.65%
10,COC(=O)C1(Nc2ccccc2)CCN(Cc2ccccc2)CC1,inactive: -4.64%
11,COc1ccc(CN(CCCl)CCCl)cc1Cl,inactive: 2.78%
12,CC(C)c1ccc(NC2CCN(C(=O)OC(C)(C)C)CC2)cc1,inactive: 3.22%
13,CCCOc1ccc(C(=O)NCC2(N(C)C)CCCCC2)cc1OC,inactive: -0.28%
14,Cc1ccc(C(=O)NCC2(N(C)C)CCCCC2)o1,inactive: -1.54%
15,COc1ccc(C(c2nnnn2C2CCCC2)N2CCC(n3c(=O)[nH]c4ccccc43)CC2)cc1 (stereo not given),inactive: -6.9%
16,O=C(NCC1(N2CCCCC2)CCCCC1)c1cncc(Br)c1,inactive: 1.22%
17,CN1CCC(Nc2cccc(F)c2)CC1,inactive: 3.88%
18,O=c1[nH]c2ccccc2n1C1CCN(C(c2ccnc3ccccc23)c2nnnn2C2CCCC2)CC1 (stereo not given),inactive: -4.86%
19,COc1ccc(C(=O)NCC2(N3CCOCC3)CCCCC2)cc1OC,inactive: 4.92%
20,NC(=O)C1(Nc2ccccc2)CCN(Cc2ccccc2)CC1,inactive: -4.39%
21,O=c1[nH]c2ccccc2n1C1CCN(C(c2cccs2)c2nnnn2C2CCCCC2)CC1 (stereo not given),inactive: 9.72%
22,O=C(NCC1(N2CCOCC2)CCCCC1)c1cc(Br)ccc1Cl,inactive: -2.94%

row,SMILES,activation
1,COc1cc(C(=O)NCC2(N3CCOCC3)CCCCC2)cc(OC)c1C,inactive: -2.82%
2,CCCCn1nnnc1C(c1ccccc1)N1CCC(n2c(=O)[nH]c3ccccc32)CC1 (stereo not given),inactive: 0.55%
3,CCCCn1nnnc1C(c1cccc(OC)c1OC)N1CCC(n2c(=O)[nH]c3ccccc32)CC1 (stereo not given),inactive: -0.04%
4,O=c1[nH]c2ccccc2n1C1CCN(C(c2cccs2)c2nnnn2C2CCCC2)CC1 (stereo not given),inactive: 4.55%
5,O=C(OC1CN2CCC1CC2)C1c2ccccc2C=Cc2ccccc21 (stereo not given),inactive: -23.1%
6,N/C(=N\O)c1c(N)no[n+]1[O-],inactive: 1.84%
7,COc1cccc(C(c2nnnn2C(C)(C)C)N2CCC(n3c(=O)[nH]c4ccccc43)CC2)c1OC (stereo not given),inactive: 1.68%
8,CCOC(=O)N1CCC(Nc2ccc(C)cc2)CC1,inactive: 1.42%
9,CC(C)(C)OC(=O)N1CCC(N(C(=O)c2ccccc2)c2ccc(Cl)cc2)CC1,inactive: 2.21%
10,N#Cc1ccc(C(=O)NCC2(N3CCCCC3)CCCCC2)cc1,inactive: 5.43%
11,CC(C)(C)n1nnnc1C(c1cccc2ccccc12)N1CCC(n2c(=O)[nH]c3ccccc32)CC1 (stereo not given),inactive: -3.82%
12,O=c1[nH]c2ccccc2n1C1CCN(C(c2ccccc2)c2nnnn2C2CCCC2)CC1 (stereo not given),inactive: 1.2%
13,CCCN1CCC(Nc2cc(OC)cc(OC)c2)CC1,inactive: 4.54%
14,Cc1cc(N(CCCl)CCCl)ccc1C=O,inactive: 2.6%
15,c1ccc(CN2CCC(Nc3ccccc3)CC2)cc1,inactive: 0.41%
16,C/C(N)=N\P(=O)(Oc1ccccc1)Oc1ccccc1,inactive: -3.83%
17,CN(C)C1(CNC(=O)c2cccc(C#N)c2)CCCCC1,inactive: 2.7%
18,Cc1ccc(NC2(C#N)CCN(Cc3ccccc3)CC2)cc1,inactive: 1.43%
19,Fc1ccccc1NC1CCN(Cc2ccccc2)CC1,inactive: 3.62%
20,Cc1ccc(C(=O)NCC2(N3CCCCC3)CCCCC2)o1,inactive: -4.92%
21,O=c1[nH]c2ccccc2n1C1CCN(C(c2ccnc3ccccc23)c2nnnn2C2CCCCC2)CC1 (stereo not given),inactive: -2.42%
22,COc1cc(OC)cc(C(=O)NCC2(N3CCCCC3)CCCCC2)c1,inactive: -6.17%

row,SMILES,activation
1,CCC(c1nnnn1C1CCCCC1)N1CCC(n2c(=O)[nH]c3ccccc32)CC1 (stereo not given),inactive: -9.93%
2,CC(=O)N(c1ccccc1)C1CCNCC1,inactive: 2.48%
3,COc1cccc(C(c2nnnn2C2CCCCC2)N2CCC(n3c(=O)[nH]c4ccccc43)CC2)c1OC (stereo not given),inactive: -5.34%
4,Cn1c(=O)[nH]cc(N(CCCl)CCCl)c1=O,inactive: -3.77%
5,CN(C)c1ccc(C(=O)NCC2(N3CCCCC3)CCCCC2)cc1,inactive: 2.02%
6,O=C(NCC1(N2CCCCC2)CCCCC1)c1ccco1,inactive: 3.74%
7,CC(C)(C)n1nnnc1C(c1ccnc2ccccc12)N1CCC(n2c(=O)[nH]c3ccccc32)CC1 (stereo not given),inactive: -4.07%
8,COc1ccc(C(c2nnnn2C2CCCCC2)N2CCC(n3c(=O)[nH]c4ccccc43)CC2)cc1 (stereo not given),inactive: -0.74%
9,CCN1CCC(Nc2cccc(F)c2)CC1,inactive: 2.01%
10,Cc1ccccc1NC1(C#N)CCN(Cc2ccccc2)CC1,inactive: -2.4%
11,CCCOc1ccc(C(=O)NCC2(N(C)C)CCCCC2)cc1,inactive: 5.59%
12,O=c1[nH]c2ccccc2n1C1CCN(C(c2cc3ccccc3o2)c2nnnn2C2CCCC2)CC1 (stereo not given),inactive: 10.7%
13,O=C(O)C1(Nc2ccccc2)CCN(Cc2ccccc2)CC1,inactive: 2.38%
14,NN(c1ccccc1)C1CCN(CCc2ccccc2)CC1,inactive: -1.47%
15,CC(C)(C)OC(=O)N1CCC(Nc2ccccc2)CC1,inactive: -0.64%
16,CN1CCC(Nc2ccc(F)c(Cl)c2)CC1,inactive: -6.41%
17,CCOc1ncccc1C(=O)NCC1(N2CCOCC2)CCCCC1,inactive: -8.18%
18,CN1CCC(Nc2ccc(Cl)cc2)CC1,inactive: 0.88%
19,CCC(CO)(C(=O)OC1CN2CCC1CC2)c1ccccc1 (stereo not given),inactive: -5.11%
20,COc1cc(OC)cc(C(=O)NCC2(N3CCOCC3)CCCCC2)c1,inactive: 3.44%
21,COc1cccc(C(c2nnnn2C2CCCC2)N2CCC(n3c(=O)[nH]c4ccccc43)CC2)c1OC (stereo not given),inactive: 1.97%
22,COc1cccc(C(=O)N(c2cc(C)cc(C)c2)C2CCN(C(=O)OC(C)(C)C)CC2)c1,inactive: 2.23%
